Measured values from patent US12544451B2, “Intracellular delivery compositions” (BIOND BIOLOGICS LTD., priority 2021, dated 2026).
Where two headings read alike, the source gives them in different places.

What was measured:
[1] = Conjugate stability under cytoplasmic-like conditions (GSH solution), ELISA of intact conjugate; assay type: in vitro ADME; conditions: 10 mM GSH
Protocol: (§1) Thus, ex vivo stability analysis of this linker was performed in the plasma of mice, monkeys and humans. […] The level of the conjugate was measured over time using an ELISA that measures only intact conjugate and was standardized to conjugate levels when incubated in PBS. […] The stability of the conjugate was also evaluated in a solution of 10 mM GSH, mimicking the GSH levels in the cytoplasm of cells. As expected, and as designed, the disulfide bond conjugating the VHH to the carrier is unstable in the presence of GSH and practically all the conjugate was cleaved within 5 hours.
Therefore, the stability of the biotin-PEG-HSA conjugate was evaluated in cytoplasmic-like conditions, characterized by the presence of glutathione (10 mM).

[2] = Conjugate stability in mice plasma (ELISA of intact conjugate); assay type: in vitro ADME; conditions: in vitro incubation in mice plasma
Protocol: as §1, with “cells.” for “cells. As expected, and as designed, the disulfide bond conjugating the VHH to the carrier is unstable in the presence of GSH and practically all the conjugate was cleaved within 5 hours.”

[3] = Conjugate stability in human plasma (ELISA of intact conjugate); assay type: in vitro ADME, humans; conditions: in vitro incubation in human plasma
Protocol: as §1

[4] = In vivo PK study of 3rd generation linkers (hindered PEGs and peptide linkers), two side ELISA; conditions: Balb-c mice, 60 nmol/Kg, plasma
[5] = mouse, in vivo, 60 nmol/kg
[6] = In vivo PK study of 2nd generation linker conjugates, two side ELISA (anti VHH/anti HSA); conditions: Balb-c mice, 60 nmol/Kg, plasma

Substance: VHH αE7-(G4S)3—C-HSA [S3C]
- conjugate still detected after 24 hours ([1]; 24 hours): no residual levels

Substance: HSA-PEG4-di-methyl(dm)-S—S-VHH [S1]
- stability in mice plasma [2]: some decrease in the conjugate concentration was observed
- stability in human plasma [3]: not decreased even after 96 h
- stability in PBS: stable in PBS
- AUC0-t [4]: 963.1 µg·h/mL
- C0 [4]: 124.4 µg/mL
- Cmax [4]: 118.2 µg/mL
- t1/2 [4]: 14.2 h
- stability under cytoplasmic-like conditions [1]: decreased rapidly with time

Substance: VHH αE7-G4S-G4S-G4L-C-HSA [S3A]
- stability in mice plasma [2]: good stability in mice plasma
- AUC0-t [5]: 1098.4 µg·h/mL
- C0 [5]: 118.3 µg/mL
- CL [5]: 4.525 mL/h/kg
- Cmax [5]: 112.4 µg/mL
- t1/2 [5]: 13.5 h

Substance: VHH αE7-PEG11-HSA [S4]
- AUC0-inf [6]: 1950.5 µg·h/mL
- AUC0-t [6]: 1856.0 µg·h/mL
- C0 [6]: 179.9 µg/mL
- Cmax [6]: 167.2 µg/mL
- t1/2 [6]: 28.1 h
